# Apparent affinities of Ab-14 variants for a coronavirus HR2 peptide

The measurements come from Li et al. 2023 (doi:10.1038/s41467-023-39022-2) through the FLAb antibody collection.

Target: peptide PDVDLGDISGINAS, taken from heptad repeat 2 (HR2) of SARS-CoV-2 spike.

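The starting antibody came from a phage panning campaign against this peptide. The variants were designed computationally from a first round of random CDR variants and then made and measured. Several design methods are mixed in this list. AlphaSeq pools MATa yeast showing the antibodies with MATalpha yeast showing the peptide. Pairs that bind mate more often; barcode pairs of the diploids are counted by sequencing. Scores were corrected for input abundance and mapped to Kd with protein pairs of known affinity run in the same pool. There are six technical replicates.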

Each scFv is VH, three GGGGS repeats, VL, as in the parent Ab-14, and differs from it in the CDRs of the light chain only.
VH: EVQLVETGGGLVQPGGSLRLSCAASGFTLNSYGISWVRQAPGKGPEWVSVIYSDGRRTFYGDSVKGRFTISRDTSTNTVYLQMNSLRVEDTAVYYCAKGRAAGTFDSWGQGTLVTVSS
VL: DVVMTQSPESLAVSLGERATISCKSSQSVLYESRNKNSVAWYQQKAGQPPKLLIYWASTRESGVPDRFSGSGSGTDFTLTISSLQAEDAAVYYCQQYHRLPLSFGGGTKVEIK

Each variant is given by its three light chain CDRs, as the data file delimits them; those of the parent are KSSQSVLYESRNKNSVA, WASTRES, QQYHRLPLS.
Scale: log10 of Kd in nM, estimated from mating counts; low values are strong binders.
"nd" means that the variant was in the library but no mating with the target was seen in that replicate; the authors take this as a sign of poor binding, and no number exists.
Three control strains display no target. For all light chain designs, 4% of the pairings with them gave a signal, with a median of 2.64 and one signal in twenty below 1.59, so weak values seen in few replicates may be background.
The parent sequence was in this pool as ten entries: three were never detected, three once, and four in most replicates, with averages from 0.34 to 2.37.
Values of this round are not directly comparable with the first-round values of the same sequences.
In the paper, a design with two or fewer of six values counts as a poor binder.

The variant MFSQLVYTGSRTKNAVA | QASTREN | QQYHRLPLA showed 2.05, 1.64, 2.21, 1.82, 2.65, 1.85.
The variant KSSQSVDVESRNKNSVA | DASTRES | QQYHRLPLS showed 0.03, 0.09, -0.04, -0.06, 0.00, 0.13.
The variant KLSQSVMYESRNKNSVA | NASTREV | QQYHRLPLS showed -0.09, -0.37, -0.51, -0.38, -0.37, -0.30.
The variant MISDLMMYGSRNKNPIA | NASTREY | QQYHRLPLE showed 1.28, 0.95, 0.75, 0.55, 0.80, 0.80.
The variant KSGQGVLYESRNCNSVA | GASTRES | AQYHRLPLS showed 0.85, 0.85, 0.87, 1.18, 0.98, 1.36.
The variant KVSQSVLYEQRNKNNVA | EASTRES | QQYHRLPLS showed -0.23, -0.24, -0.33, -0.48, -0.57, -0.18.
The variant HLSGSVLMESRNKNSVA | SADTRLS | QQYHRLPLS showed 0.19, 0.09, 0.13, -0.04, 0.25, 0.39.
The variant KVMQSNWYESRWPNSVA | NASQRES | QQYHRLPLS showed 0.70, 0.31, 0.43, 0.29, 0.42, 0.64.
The variant KSSQSVLYESRNKHSVA | EASTRMS | QQYCRLPLS showed 1.12, 0.70, 0.72, 0.67, 1.18, 0.70.
The variant KVYQSQLYESRNKNSVA | NASQRES | QQYHRLPLS showed -0.09, -0.01, -0.07, -0.21, 0.05, -0.05.
The variant KSSQSVQYESRNKNSVA | WASTRES | QQYHRLPLS showed nd, nd, nd, nd, nd, nd.
The variant TLVGNIQGGGWAIKSVA | DAVQRVN | QQYYRLPLS showed nd, nd, nd, nd, 1.88, nd.
The variant KFGSMVLTGSYVKNSVA | QSSTREN | QQYHRLPLS showed 0.70, 0.58, 0.56, 0.56, 0.67, 0.56.
The variant KFSQMDLYESRNKNNVA | DASTRSS | QQYHRLPLS showed -0.19, -0.47, -0.53, -0.52, -0.61, -0.24.
The variant KISMMSSIESIMHNSVA | QTSNREN | QQYDRLPLS showed 0.86, 0.97, 0.32, 0.09, 0.22, 1.13.
The variant KILQSVEYESRNKNSVA | HASTRED | QQYGRLPLS showed 1.13, 1.33, 1.04, 0.71, 0.70, 0.96.
The variant KSSQSVEFESRNKNSVA | DASTRES | QQYHRLPLS showed 0.09, 0.10, 0.00, 0.13, 0.22, 0.14.

Further variants, results first:

0.22, 0.05, -0.22, -0.34, -0.03, -0.01 for KLPQSVLYESRNKNSVA | HASLRED | QQYHRLPLS.
0.13, -0.13, 0.05, -0.18, -0.21, 0.57 for KSSGSVLYESRNSNSVA | NASTREL | QDYHRLPLS.
0.01, 0.12, 0.26, -0.03, 0.09, 0.39 for KQSQSVLQESRNCNSVA | DASTRES | QQYVRLPLS.
1.44, 1.08, 1.17, 0.58, 0.88, 1.23 for KLQFSCEYESRNKNSVA | MASTRCD | QQYHRLPLS.
0.12, 0.30, 0.34, 0.14, -0.09, 0.61 for KWSQSVLMESMLVNSVA | NASQRES | QQYHRLPLS.
-0.26, -0.60, -0.68, -0.76, -0.59, -0.25 for KLDQSALYESRNKNSVA | GASTRES | QQYHRLPLS.
0.13, 0.37, 0.12, 0.02, 0.24, 0.42 for KLSQSVLYESRNKNNVA | NASTRSS | QQYHRLPLS.
nd, nd, nd, nd, nd, nd for TLDMVARGLTRKEDSVA | DNSTRED | QQYDRLPLS.
-0.05, -0.09, -0.23, -0.11, 0.07, 0.08 for KLSQSNLYEWRNDNSVA | NASQRES | QQYHRLPLS.
0.44, 0.63, 0.23, 0.58, 0.47, 0.37 for MISALTMYGSRNKNSVA | DLSTRGS | QQYHRLPLS.
0.14, 0.10, 0.03, 0.10, 0.09, 0.31 for KMSQSVLYEDRNSNAVA | QASQRMS | QQYHRLPLS.
0.03, 0.01, -0.12, -0.11, -0.15, 0.27 for KLSQSVLYESRLKNSVA | NASTRMS | QQYHRLPLS.
0.79, 0.76, 0.53, 0.70, 0.67, 0.74 for KVPQSVLDESRNKNSVA | WASTRES | QQYHRLPLS.
-0.16, -0.53, -0.49, -0.38, -0.19, -0.32 for KLQNSQEYESRMKNSVA | NASQREE | QQYHRLPLS.
nd, nd, nd, 3.34, nd, nd for HITYGMQVAGRHSKSIA | QAETRAK | QQYDRLPLT.
1.91, 1.74, 2.20, 2.07, 1.71, 1.82 for KIRNDFMESKQNQSNIA | GHHESIK | QQYSMLPLS.
0.66, 0.48, 0.33, 0.21, 0.57, 0.55 for HSSPSVAYESRNKNSVA | NASTRFS | QQYHRLPLS.

The first 4 entries again:

The variant MFSQLVYTGSRTKNAVA | QASTREN | QQYHRLPLA gave 2.05, 1.64, 2.21, 1.82, 2.65, 1.85.
The variant KSSQSVDVESRNKNSVA | DASTRES | QQYHRLPLS gave 0.03, 0.09, -0.04, -0.06, 0.00, 0.13.
The variant KLSQSVMYESRNKNSVA | NASTREV | QQYHRLPLS gave -0.09, -0.37, -0.51, -0.38, -0.37, -0.30.
The variant MISDLMMYGSRNKNPIA | NASTREY | QQYHRLPLE gave 1.28, 0.95, 0.75, 0.55, 0.80, 0.80.